Patent US9676752B2, “Imidazolidine-2,4-dione derivatives” (IPSEN PHARMA S.A.S., priority 2013, dated 2017)

Chains of the proteins cited; added tags and fusions are not shown.
UniProt P10275, whole entry T878A: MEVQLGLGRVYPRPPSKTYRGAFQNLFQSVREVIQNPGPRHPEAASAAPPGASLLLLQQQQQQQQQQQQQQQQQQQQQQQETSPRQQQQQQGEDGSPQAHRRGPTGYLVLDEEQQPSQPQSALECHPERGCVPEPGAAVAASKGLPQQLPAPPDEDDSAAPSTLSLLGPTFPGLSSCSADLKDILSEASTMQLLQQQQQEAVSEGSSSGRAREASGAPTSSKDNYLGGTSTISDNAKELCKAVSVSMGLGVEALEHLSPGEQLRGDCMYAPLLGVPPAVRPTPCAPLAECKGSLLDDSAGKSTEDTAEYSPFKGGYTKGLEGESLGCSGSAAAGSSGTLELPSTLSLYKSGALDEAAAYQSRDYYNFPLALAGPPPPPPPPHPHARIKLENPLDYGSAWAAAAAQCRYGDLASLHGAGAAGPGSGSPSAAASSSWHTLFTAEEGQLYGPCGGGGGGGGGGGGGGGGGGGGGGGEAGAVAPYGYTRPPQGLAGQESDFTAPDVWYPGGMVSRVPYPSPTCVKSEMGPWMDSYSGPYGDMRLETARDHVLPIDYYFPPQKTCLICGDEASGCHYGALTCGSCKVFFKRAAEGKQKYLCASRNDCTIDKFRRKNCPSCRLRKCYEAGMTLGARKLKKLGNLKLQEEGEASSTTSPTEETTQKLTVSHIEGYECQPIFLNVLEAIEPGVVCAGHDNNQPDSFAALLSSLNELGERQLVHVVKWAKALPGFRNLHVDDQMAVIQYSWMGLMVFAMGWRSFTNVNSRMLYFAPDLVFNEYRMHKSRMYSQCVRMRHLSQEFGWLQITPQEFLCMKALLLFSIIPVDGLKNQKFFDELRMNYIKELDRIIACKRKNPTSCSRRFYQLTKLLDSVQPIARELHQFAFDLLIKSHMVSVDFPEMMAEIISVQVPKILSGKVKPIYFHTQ

What was measured:
[1] = test system: DU145; test: Anti-proliferative activity on DU145 in complete medium; details: read-out: DU145 IC50, 144 h incubation, Cell-Titer-Glow, line does not express androgen receptor
[2] = test system: LNCaP; test: Anti-proliferative activity on LNCaP in complete medium; details: read-out: LNCaP IC50, 144 h incubation, Cell-Titer-Glow
[3] = Evaluation of solubility in potassium phosphate buffer pH 7.4; details: 100 mM potassium phosphate buffer pH 7.4, target 10 μM, 0.1% DMSO, 1 hour room temperature, LC-MS/MS
[4] = biological target: androgen receptor (Homo sapiens, UniProt P10275, T878A); test: Measurement of protein expression of the androgen receptor in LNCaP cells (AR ELISA); details: read-out: IC50 AR destruction in LNCaP; 3 days treatment, whole cell protein, AR ELISA kit
[5] = test system: VCaP; test: Anti-proliferative activity on VCaP in complete medium; details: read-out: VCaP IC50, Cell-Titer-Glow, reading after 9 days

For CC1(C)C(=O)N(c2ccc(C#N)c(C(F)(F)F)c2)C(=O)N1C/C=C\CN1C(=O)N(c2ccc(C#N)c(C(F)(F)F)c2)C(=O)C1(C)C, the IC50 [1] was greater than 10000 nM, the IC50 [2] was 207 nM and the Solubility [3] was less than 0.02 µM. The IC50 [4] was 147 nM and the IC50 [5] was 543 nM.
